The numbers were not newly measured in publication PMC5490379 (Molecular pharmaceutics, 2017), which cites them from elsewhere.

pKi: −log10 of the molar value.

Broadly, the pKi is the Ki on a negative log10 scale, so that one unit is a factor of ten.

The target of the data set is σ2 receptor. As to conditions: read-out: Ki σ2; ref [30]; cited from earlier work.

In the case of `COc1cccc2c1CCCC2CCCN1CCN(C2CCCCC2)CC1` (stereo not shown) [[^11C]PB28], the pKi is 8.23.
